The values that follow come from paper PMC11949107, “Polyunsaturated fatty acids and their endocannabinoid-related metabolites activity at human TRPV1 and TRPA1 ion channels expressed in HEK-293 cells” (PeerJ, 2025).

Chains of the proteins cited; added tags and fusions are not shown.
UniProt Q8NER1, whole entry: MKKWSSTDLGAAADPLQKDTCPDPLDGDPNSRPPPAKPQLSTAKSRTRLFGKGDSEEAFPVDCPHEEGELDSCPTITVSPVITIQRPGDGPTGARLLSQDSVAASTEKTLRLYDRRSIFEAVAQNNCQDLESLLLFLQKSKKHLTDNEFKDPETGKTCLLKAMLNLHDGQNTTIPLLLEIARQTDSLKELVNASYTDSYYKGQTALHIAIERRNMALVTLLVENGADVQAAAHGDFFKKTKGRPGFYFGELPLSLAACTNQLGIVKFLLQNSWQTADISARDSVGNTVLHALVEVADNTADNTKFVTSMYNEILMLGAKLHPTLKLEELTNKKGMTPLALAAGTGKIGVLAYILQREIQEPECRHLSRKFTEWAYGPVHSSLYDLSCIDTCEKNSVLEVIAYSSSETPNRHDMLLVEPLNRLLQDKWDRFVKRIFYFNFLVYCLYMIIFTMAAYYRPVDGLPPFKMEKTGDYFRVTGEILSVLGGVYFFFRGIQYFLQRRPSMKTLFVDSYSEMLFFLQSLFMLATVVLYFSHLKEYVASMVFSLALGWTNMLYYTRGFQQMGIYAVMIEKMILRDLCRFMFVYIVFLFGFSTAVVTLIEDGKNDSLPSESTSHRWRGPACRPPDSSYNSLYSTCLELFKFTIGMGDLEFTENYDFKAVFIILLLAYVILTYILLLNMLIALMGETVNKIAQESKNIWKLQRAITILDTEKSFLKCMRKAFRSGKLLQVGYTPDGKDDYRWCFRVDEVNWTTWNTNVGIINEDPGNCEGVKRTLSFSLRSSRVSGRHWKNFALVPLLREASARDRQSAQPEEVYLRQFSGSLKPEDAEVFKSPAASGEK
UniProt O75762, whole entry: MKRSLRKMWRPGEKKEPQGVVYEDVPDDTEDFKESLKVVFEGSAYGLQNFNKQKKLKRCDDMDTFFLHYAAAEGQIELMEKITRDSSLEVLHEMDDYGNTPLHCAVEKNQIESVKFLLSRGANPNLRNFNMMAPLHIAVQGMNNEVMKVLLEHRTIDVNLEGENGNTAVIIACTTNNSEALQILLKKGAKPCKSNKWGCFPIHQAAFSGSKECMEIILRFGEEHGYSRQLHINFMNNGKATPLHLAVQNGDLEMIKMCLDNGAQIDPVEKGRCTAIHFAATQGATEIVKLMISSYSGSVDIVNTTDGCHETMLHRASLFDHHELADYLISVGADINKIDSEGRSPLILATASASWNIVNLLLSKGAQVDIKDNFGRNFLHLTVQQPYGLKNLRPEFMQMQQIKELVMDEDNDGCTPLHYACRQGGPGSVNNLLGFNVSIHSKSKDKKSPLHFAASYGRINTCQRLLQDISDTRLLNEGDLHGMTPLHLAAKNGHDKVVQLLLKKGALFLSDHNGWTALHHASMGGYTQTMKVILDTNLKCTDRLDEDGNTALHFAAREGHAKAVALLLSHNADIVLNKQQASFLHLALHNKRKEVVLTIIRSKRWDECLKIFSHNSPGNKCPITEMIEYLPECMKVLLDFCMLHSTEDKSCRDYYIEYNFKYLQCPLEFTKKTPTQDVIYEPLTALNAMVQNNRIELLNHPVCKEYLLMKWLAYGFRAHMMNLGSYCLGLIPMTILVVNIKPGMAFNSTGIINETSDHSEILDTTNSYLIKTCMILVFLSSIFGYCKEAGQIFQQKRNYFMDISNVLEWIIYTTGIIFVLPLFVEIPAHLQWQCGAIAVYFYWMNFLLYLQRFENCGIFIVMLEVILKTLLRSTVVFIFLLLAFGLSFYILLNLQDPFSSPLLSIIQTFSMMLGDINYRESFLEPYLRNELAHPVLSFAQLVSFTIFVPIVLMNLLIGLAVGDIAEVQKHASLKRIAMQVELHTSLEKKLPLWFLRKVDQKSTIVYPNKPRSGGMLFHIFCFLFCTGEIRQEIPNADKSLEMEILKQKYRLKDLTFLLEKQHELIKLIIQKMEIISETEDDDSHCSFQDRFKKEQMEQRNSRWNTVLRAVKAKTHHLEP

Type in all cases: cell-based
For assay [1], the target named is T1, human TRPV1 (Homo sapiens, UniProt Q8NER1).
T1 construct: Life Technologies (cells); host or cells: Flp-In T-REx HEK-293
The assay is described as follows: Calcium 5 dye [Ca]i assay in HEK-293 Flp-In T-REx cells expressing TRPV1 (agonist response). On the procedure: (§1) The cells were incubated in a 5% CO2 humidified atmosphere at 37 °C. Upon reaching approximately 90% confluence in 75 cm^2 flasks, they were trypsinized and transferred to poly-D-lysine coated 96-well plates (Corning, Castle Hill, NSW, Australia) in L-15 medium supplemented with 1% FBS, 100 U penicillin and 100 µg streptomycin ml^−1 (1% P/S), and 15 mM glucose (80 µL volume per well). After an overnight incubation (maximum of 16 h) in humidified room air at 37 °C, TRPV1 and TRPA1 receptor expression was induced 4 h before experimentation by adding to each well 10 µL tetracycline solution to a final concentration of 1 µg ml^−1.
(§2) Intracellular calcium [Ca]i levels were assessed using the calcium 5 kit from Molecular Devices (# R8186, Sunnyvale, CA, USA) on a FlexStation 3 Microplate Reader (Molecular Devices, Sunnyvale, CA, USA). […] 90 µL of the dye were loaded into each well of the plate and incubated for 1 h before reading in the FlexStation 3 at 37 °C. Fluorescence was recorded every 2 s (λ excitation = 485 nm, λ emission = 525 nm) for 5 min. […]
(§3) The response to agonists was expressed as a percentage change from the average baseline measurement taken for 60s before adding drug. Changes in fluorescence resulting from the addition of solvent were subtracted before normalization to baseline. […] Potencies were expressed as pEC50, which is the negative log of EC50 in moles per litre (Molar). […]

Assay [2] concerns the target T2, human TRPA1 (Homo sapiens, UniProt O75762).
T2 construct: Life Technologies (cells); host or cells: Flp-In T-REx HEK-293
The assay is described as follows: Calcium 5 dye [Ca]i assay in HEK-293 Flp-In T-REx cells expressing TRPA1 (agonist response). As to conditions: concentration -5.52288 (log); sheet Figure 4; listed as GLA. The method, then: as §1, §2, §3

Assay [3] concerns the target T1, human TRPV1. The assay is described as follows: PMA (phorbol ester) potentiation of TRPV1 responses in HEK-293 TRPV1 cells. On the set-up: key to Drugs alone, individual experiments: change in [Ca]i as % of pre-drug baseline. On the procedure: Intracellular calcium [Ca]i levels were assessed using the calcium 5 kit from Molecular Devices (# R8186, Sunnyvale, CA, USA) on a FlexStation 3 Microplate Reader (Molecular Devices, Sunnyvale, CA, USA). […] Probenecid (cat # 50027; Biotium) which helps to prevent expulsion of calcium indicator from the cells was added to a final concentration of 1.25 mM. 90 µL of the dye were loaded into each well of the plate and incubated for 1 h before reading in the FlexStation 3 at 37 °C. Fluorescence was recorded every 2 s (λ excitation = 485 nm, λ emission = 525 nm) for 5 min. After 1 min of baseline recording, 20 µL of the drug, dissolved in HBSS with 1% dimethyl sulfoxide (DMSO) (cat # D2650; Sigma-Aldrich, Melbourne, Australia) was added (final DMSO concentration was 0.1% in well).
We initially determined the effect of PMA, another phorbol ester that is a protein kinase C activator ([Jiang & Fleet, 2012]) on HEK-293 TRPV1 expressing cells.
(A) Response of HEK-293 TRPV1 expressing cells for PMA at various concentration. […] Drugs were added for the duration of the bar; (D) The effects of PUFAs after potentiation of TRPV1 by PMA. […] Changes in [Ca]i are expressed as percentage of the pre-drug baseline, with the response to PMA alone at 5 min subtracted. The black circles represent the response of PUFAs without PMA pretreatment while the pink circles represent the response of PUFAs after PMA potentiation.

Structures are written as SMILES. Where “and” joins values, the source holds several entries; their conditions need not be identical. Identical values can stand only once.

As a reminder, the Emax is the maximal effect, on the per cent scale that the assay sets. On to `CCCCC/C=C\C/C=C\C/C=C\CCCCC(=O)O` [γ-LA, γ-linolenic acid], for which the Emax at 30 µM in assay [1] (HEK293, read-out: Emax ± SEM % TRPV1 (30 µM)) is 40 ± 11%. Also, the “Change in Ca5 fluorescence, individual experiments (CRC raw data)” value in assay [1] (log concentration -7 (M), TRPV1 cells, listed as GLA) stood at 4.439. In addition, in assay [2], the “[Ca]i response (change in fluorescence), individual replicates” value is 3.248. In addition, in assay [3] (PMA 100 nM, 5 min pretreatment), the “TRPV1 response after exposure to PMA” value was “amplified”. In addition, the “Drugs post-PMA, individual experiments” value in assay [3] (PUFA 10 µM after PMA 100 nM for 5 min, response to PMA alone subtracted, listed as GLA) was 44.7315 and 35.0016 and 34.9278 and 29.5327 and 32.5444 and 42.846 and 29.0963 and 22.7975. In assay [3] (PUFA 10 µM without PMA pretreatment, TRPV1 cells, listed as GLA), the “Drugs alone, individual experiments” value was 9.631 and 12.2352 and 8.421 and 4.046 and 4.255 and 2.8335 and 8.258 and 18.6815 and 44.3804.
